{
  "sequences": {"note": "Sequences of proteins named here, by UniProt entry; tags and fusion partners are left off.", "UniProt P51681, whole entry": "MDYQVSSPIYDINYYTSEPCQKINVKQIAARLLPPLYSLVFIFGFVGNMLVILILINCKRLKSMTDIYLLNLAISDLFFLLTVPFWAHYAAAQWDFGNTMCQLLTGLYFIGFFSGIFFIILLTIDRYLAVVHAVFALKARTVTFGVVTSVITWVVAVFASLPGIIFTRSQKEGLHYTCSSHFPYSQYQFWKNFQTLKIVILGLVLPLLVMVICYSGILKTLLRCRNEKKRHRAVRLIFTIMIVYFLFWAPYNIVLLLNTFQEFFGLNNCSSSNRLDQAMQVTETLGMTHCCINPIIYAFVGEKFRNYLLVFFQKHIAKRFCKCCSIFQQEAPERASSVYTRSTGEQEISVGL"},
  "source": "ChEMBL document CHEMBL1146303",
  "about": "“Spirodiketopiperazine-based CCR5 antagonists: Lead optimization from biologically active metabolite” (Bioorg Med Chem Lett, 2007)",
  "key": {"[1]": {"target": "T1, C-C chemokine receptor type 5 (Homo sapiens, UniProt P51681)", "assay": "Displacement of [125I]MIP1-alpha from human CCR5 expressed in CHO cells", "format": "cell-based", "in_short": "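CCR5 binding affinity was measured as inhibition of 125I-MIP-1α binding to hCCR5/CHO cells and reported as an IC50.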"}, "[2]": {"target": "T1, C-C chemokine receptor type 5", "assay": "Antagonist activity at human CCR5 expressed in CHO cells assessed as inhibition of MIP-1-alpha-stimulated calcium mobilization", "format": "functional, cell-based", "in_short": "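Cells expressing human CCR5 (hCCR5/CHO) were stimulated with MIP-1α, and the rise in intracellular calcium was measured. Potency is reported as an IC50 for inhibition of the calcium response.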"}},
  "note": "pIC50: −log10 of the molar value.",
  "data": [
    {"smiles": "CCCCN1C(=O)[C@@H]([C@H](O)C2CCCCC2)NC(=O)C12CCN(Cc1ccc(Oc3ccccc3)cc1)CC2.Cl", "values": [
      {"measurement": "pIC50", "setting": "[1]", "result": 8.96},
      {"measurement": "pIC50", "setting": "[2]", "result": 7.28}
    ]}
  ]
}
